Data as given in ChEMBL document CHEMBL5634075, “An electrophilic fragment screening for the development of small molecules targeting caspase-2” (Eur J Med Chem, 2023).

Assays:
Caspase-3 = target: T1, Caspase-3 (Homo sapiens, UniProt P42574); experiment: Inhibition of recombinant caspase-3 (unknown origin) using Ac-DEVD-AFC as substrate measured after 40 mins by fluorescence assay
T1 sequence (P42574 whole entry): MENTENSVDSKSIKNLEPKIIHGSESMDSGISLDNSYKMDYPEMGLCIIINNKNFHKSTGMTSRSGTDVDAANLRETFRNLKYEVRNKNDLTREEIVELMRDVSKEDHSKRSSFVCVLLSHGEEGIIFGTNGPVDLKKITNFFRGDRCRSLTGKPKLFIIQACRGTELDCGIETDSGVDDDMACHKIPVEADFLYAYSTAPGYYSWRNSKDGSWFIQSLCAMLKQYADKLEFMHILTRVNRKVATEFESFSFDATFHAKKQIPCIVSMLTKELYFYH

Homo sapiens = species on record: Homo sapiens; experiment: Selectivity ratio of IC50 for recombinant caspase-3 (unknown origin) to recombinant caspase-2 (unknown origin)
Caspase-2 (Homo sapiens) = target: T2, Caspase-2 (Homo sapiens) (UniProt P42575); experiment: Irreversible inhibition of recombinant caspase-2 (unknown origin) assessed as ratio of Kinact/Ki using Z-VDVAD-AFC as substrate measured after 40 mins by fluorescence assay
T2 sequence (whole entry): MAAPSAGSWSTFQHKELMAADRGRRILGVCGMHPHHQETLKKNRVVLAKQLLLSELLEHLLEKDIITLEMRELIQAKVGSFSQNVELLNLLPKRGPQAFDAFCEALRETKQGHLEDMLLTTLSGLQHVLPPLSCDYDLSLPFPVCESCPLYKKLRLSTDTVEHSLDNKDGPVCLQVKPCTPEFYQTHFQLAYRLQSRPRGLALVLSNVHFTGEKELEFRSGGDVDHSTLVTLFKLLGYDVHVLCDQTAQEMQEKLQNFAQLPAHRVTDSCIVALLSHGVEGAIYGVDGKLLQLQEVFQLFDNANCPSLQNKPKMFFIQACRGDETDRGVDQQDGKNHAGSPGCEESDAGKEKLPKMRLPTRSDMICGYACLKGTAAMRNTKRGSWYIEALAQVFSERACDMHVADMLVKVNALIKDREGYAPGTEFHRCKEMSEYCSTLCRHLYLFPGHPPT
Outline: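 Caspase-2 kinetic fluorometric assay with Z-VDVAD-AFC. kOBS values obtained from progress curves at four or more inhibitor concentrations. kinact/Ki then derived by two-step irreversible secondary regression (Copeland).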

HepG2 = experiment: Cytotoxicity against human HepG2 cells assessed as reduction in cell viability measured after 22 hrs by cell-titer glo assay; type: functional, cell-based
Outline: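 HepG2 cells at 250 cells/well, 1536-well format, settled 4 h at 37 °C and 5% CO2. Compound added acoustically (50 nL), 22 h at 37 °C. CellTiter-Glo reagent added, 15 min at room temperature, then luminescence read.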

| IC50 (Caspase-3) [nM] | Ratio IC50 (Homo sapiens) | Ratio (Caspase-2 (Homo sapiens)) | SMILES | Activity (HepG2) |
| --- | --- | --- | --- | --- |
| 1.38 | – | – | CC(=O)N[C@@H](CC(=O)O)C(=O)N[C@@H](CCC(=O)O)C(=O)N[C@H](C(=O)N[C@H](C=O)CC(=O)O)C(C)C | – |
| – | 19 | 7.97 10^4/M/s | Cc1nc(-c2ccc3c(c2)CCN3C(=O)CCl)cs1 | Dose-Dependent Effect |
